Experimental data as given in patent US9000182B2, “2H-imidazol-4-amine compounds and their use as BACE inhibitors” (AstraZeneca AB, priority 2012, dated 2015).
pIC50: −log10 of the molar value.

Chains of the proteins cited; added tags and fusions are not shown. Residues count along the entry.
UniProt P56817, 22-460 limits assumed: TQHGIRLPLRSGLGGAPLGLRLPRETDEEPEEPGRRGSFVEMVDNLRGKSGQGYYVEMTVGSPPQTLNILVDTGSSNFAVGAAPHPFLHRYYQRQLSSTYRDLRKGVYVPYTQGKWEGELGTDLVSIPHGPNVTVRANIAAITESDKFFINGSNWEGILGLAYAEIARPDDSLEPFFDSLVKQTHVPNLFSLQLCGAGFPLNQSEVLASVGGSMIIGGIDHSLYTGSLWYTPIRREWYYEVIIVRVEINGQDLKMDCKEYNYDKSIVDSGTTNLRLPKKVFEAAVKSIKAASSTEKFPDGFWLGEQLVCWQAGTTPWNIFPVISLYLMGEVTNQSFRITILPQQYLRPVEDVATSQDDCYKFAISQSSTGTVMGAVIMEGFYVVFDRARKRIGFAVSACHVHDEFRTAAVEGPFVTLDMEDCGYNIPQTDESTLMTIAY

How the values were obtained:
[1] = molecular target: human β-Secretase (sBACE-Fc, soluble part AA 1-AA 460) (Homo sapiens (Human), UniProt P56817); experiment: TR-FRET assay; assay type: biochemical; conditions: read-out: IC50 in TR-FRET assay; standard TR-FRET assay (values without footnote a)
[2] = system: sAPPβ release in SH-SY5Y cells; experiment: sAPPβ release assay; assay type: cell-based; conditions: read-out: IC50 in sAPPβ release assay, 17 h incubation

pIC50 [1] | pIC50 [2] | Structure (SMILES)
< 5.31 |  | CC1=N[C@@]2(N=C1N)c1cc(Br)ccc1C[C@]21CC[C@@H](O)CC1 (single isomer, unassigned)
< 5.30 |  | CC1=N[C@@]2(N=C1N)c1cc(OCC(C)C)ccc1C[C@]21CC[C@@H](O)CC1 (single isomer, unassigned)
 | 7.25 | CO[C@H]1CC[C@]2(CC1)Cc1ccc(C#CC(C)C)cc1[C@]21N=C(C)C(N)=N1 (single isomer, unassigned)
 | 6.17 | CO[C@H]1CC[C@]2(CC1)Cc1ccc(C#CC3CCC3)cc1[C@]21N=C(C)C(N)=N1 (single isomer, unassigned)
